We go through 29 compounds from PubChem BioAssay AID1434 (Sanford-Burnham Center for Chemical Genomics, 2008).

Amino acid sequences for entries named in this document (tags omitted).
UniProt Q01196, whole entry, looked up: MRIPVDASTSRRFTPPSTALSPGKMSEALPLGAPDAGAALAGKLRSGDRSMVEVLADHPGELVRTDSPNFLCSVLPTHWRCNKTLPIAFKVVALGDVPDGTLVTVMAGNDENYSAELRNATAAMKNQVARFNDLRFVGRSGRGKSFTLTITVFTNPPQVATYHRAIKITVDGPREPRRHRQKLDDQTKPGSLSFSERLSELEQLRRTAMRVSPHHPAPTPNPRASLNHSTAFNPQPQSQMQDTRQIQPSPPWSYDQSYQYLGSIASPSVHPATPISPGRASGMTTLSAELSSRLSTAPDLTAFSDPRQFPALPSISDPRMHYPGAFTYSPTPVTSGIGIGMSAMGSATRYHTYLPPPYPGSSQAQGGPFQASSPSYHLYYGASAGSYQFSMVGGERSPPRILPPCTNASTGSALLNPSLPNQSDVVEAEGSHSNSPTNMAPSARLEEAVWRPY
UniProt Q13951, whole entry, looked up: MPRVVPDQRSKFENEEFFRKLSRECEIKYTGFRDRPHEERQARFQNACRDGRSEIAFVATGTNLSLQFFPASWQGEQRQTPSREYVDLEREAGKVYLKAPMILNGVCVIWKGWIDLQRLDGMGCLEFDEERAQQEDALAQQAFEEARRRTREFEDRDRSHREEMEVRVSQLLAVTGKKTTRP

The inhibition is the relative decrease from the control value, in per cent.

The entries are a selection whose mix differs from that of the whole data set. Activity calls are given as the source filed them.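 Rule for the calls: active = mean inhibition across duplicate retests at 20 µM reaching about 50% (limit read from the data); inactive = the rest, inconclusive results apart.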

The test concerns the target Runt-related transcription factor 1 (Homo sapiens) + Core-binding factor subunit beta (Homo sapiens) (UniProt Q01196+Q13951). The experiment in a line: inhibitors of RUNX1 Runt–CBFb-SMMHC binding, primary screen, biochemical, FRET, Cerulean-Runt, Venus-CBFb-SMMHC, uHTS (AID 1434).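 Note: 0% = DMSO wells and 100% = wells with excess untagged CBFb-SMMHC; inhibitors lower the FRET ratio by blocking Runt binding to CBFb-SMMHC.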 The settings on record: Cerulean-Runt/Venus-CBFb-SMMHC FRET ratio 530/480, 1 h; at 20 µM; hits give high values.
As to `CCCOc1ccc(C)cc1CN(CCCl)CCCl`, the inhibition was inactive: -1.6%.
As for `COc1cc(OC)cc(C(=O)NCC2(N3CCOCC3)CCCCC2)c1`, the inhibition was inactive: -1.4%.
Then `CCC(CO)(C(=O)OC1CN2CCC1CC2)c1ccccc1` (centres undefined), with inactive: 0.5%.
Under `CC(C)(C)OC(=O)N1CCC(Nc2ccccc2)CC1` stands inactive: -0.6%.
Then `CCOc1ncccc1C(=O)NCC1(N2CCOCC2)CCCCC1`, with inactive: 4.4%.
Consider `CN(C)c1ccc(C(=O)NCC2(N3CCCCC3)CCCCC2)cc1`, for which the inhibition was inactive: -0.1%.
Under `CCN1CCC(Nc2cccc(F)c2)CC1` stands inactive: 2.3%.
`Fc1ccccc1NC1CCN(Cc2ccccc2)CC1`: the inhibition was inactive: 4%.
Take `c1ccc(CN2CCC(Nc3ccccc3)CC2)cc1`: the inhibition was inactive: -2.6%.
Under `N#Cc1ccc(C(=O)NCC2(N3CCCCC3)CCCCC2)cc1` stands inactive: -0.7%; under `O=C(OC1CN2CCC1CC2)C1c2ccccc2C=Cc2ccccc21` (centres undefined), inactive: 2.4%.
For `N/C(=N\O)c1c(N)no[n+]1[O-]`, the inhibition is inactive: 2.7%.
Consider `COc1ccc(C(=O)NCC2(N3CCOCC3)CCCCC2)cc1OC`, for which the inhibition is inactive: 2.5%.
Take `CC(C)c1ccc(NC2CCN(C(=O)OC(C)(C)C)CC2)cc1`: the inhibition was inactive: 5.3%.
Then `COc1ccc(CN(CCCl)CCCl)cc1Cl`, with inactive: -1.7%.
Then `CN(C)c1cccc(C(=O)NCC2(N3CCCCC3)CCCCC2)c1`, with inactive: 0%.
Take `O=C(NCC1(N2CCOCC2)CCCCC1)c1cc(=O)[nH]c2ccccc12`: the inhibition was inactive: -7.4%.
Then `CN1CCN(CCOC(=O)C(O)(c2ccccc2)c2ccccc2)CC1`, with inactive: 3.3%.
Regarding `COc1ccc(NC2CCN(C(=O)OC(C)(C)C)CC2)cc1`, the inhibition is inactive: 10.4%.
With `N#CC1(Nc2ccccc2)CCN(CCc2ccccc2)CC1`, the inhibition was inactive: -2.3%.
Then `O=C(NCC1(N2CCCCC2)CCCCC1)c1cccc([N+](=O)[O-])c1`, with inactive: -1.2%; and `Cc1ccc(OCC(C)C)c(CN(CCCl)CCCl)c1`, with inactive: -0.9%; and `COc1ccc(NC2CCN(CCc3ccccc3)CC2)c(OC)c1`, with inactive: 0.7%.
Consider `CCOc1ccc(C)cc1CN(CCCl)CCCl`, for which the inhibition is inactive: -1.4%.
Then `N#CC1(Nc2ccccc2)CCN(Cc2ccccc2)CC1`, with inactive: 3.7%.
Then `O=C(OC1CN2CCC1CC2)C1c2ccccc2Oc2ccccc21` (centres undefined), with inactive: -1.2%; and `CCOC(=O)N1CCC(Nc2ccc(OC)cc2)CC1`, with inactive: -0.5%.
Then `O=C(NCC1(N2CCOCC2)CCCCC1)c1cc2ccccc2o1`, with inactive: 0.3%; and `COc1ccc(C(=O)NCC2(N3CCCCC3)CCCCC2)c(OC)c1OC`, with inactive: -8.2%.
